ChEMBL document CHEMBL2417388, “Design and synthesis of (4E)-4-(4-substitutedbenzylideneamino)-3-substituted-2,3-dihydro-2-thioxothiazole-5-carbonitrile as novel A2A receptor antagonists” (Bioorg Med Chem, 2013)

System: HEK293
Test: Selectivity ratio of Ki for human A1 receptor expressed in HEK293 cell membranes to Ki for human A2A receptor expressed in HEK293 cell membranes
Type: cell-based

Molecule `N#Cc1sc(=S)n(-c2ccccc2)c1/N=C/c1ccc(Br)cc1` has a Ratio Ki of 44300.
